Experimental data as given in ChEMBL document CHEMBL5214925, “Dual-target inhibitors of indoleamine 2, 3 dioxygenase 1 (Ido1): A promising direction in cancer immunotherapy” (Eur J Med Chem, 2022).

Test system: Lewis lung carcinoma
Experiment: Antitumor activity against Lewis lung carcinoma cell in C57BL/6 mouse assessed as decrease in tumor volume at 60 mg/kg relative to control
Parameters: scale not given: the % may be the effect or the level left

## COP(C)(=O)NCCCNc1nonc1/C(=N/O)Nc1ccc(F)c(Br)c1 (stereo unspecified)
  Activity: 73%
